Data from patent US20220267436A1 (published 2022).

Amino acid sequences for entries named in this document (tags omitted). Residues count along the entry.
UniProt Q08722, 19-323: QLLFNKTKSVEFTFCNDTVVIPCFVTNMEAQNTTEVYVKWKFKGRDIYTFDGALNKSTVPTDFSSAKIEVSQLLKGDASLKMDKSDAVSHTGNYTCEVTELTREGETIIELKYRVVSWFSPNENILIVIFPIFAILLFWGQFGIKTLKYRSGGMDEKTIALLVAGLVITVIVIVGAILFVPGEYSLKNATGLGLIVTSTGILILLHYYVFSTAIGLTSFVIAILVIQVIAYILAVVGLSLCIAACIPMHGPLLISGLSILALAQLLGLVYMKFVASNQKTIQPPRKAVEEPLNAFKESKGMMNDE

B1: bispecific antibody LAG3-E-LC (bispecific antibody)
heavy: not shown
light: EIVLTQSPATLSLSPGERATLSCRASENVGTYISWYQQKPGQAPRLLIYGASNRYTGIPARFSGSGSGTDFTLTISSLEPEDFAVYYCGESYGHLYTFGGGTKVEIKRTVAAPSVFIFPPSDEQLKSGTASVVCLLNNFYPREAKVQWKVDNALQSGNSQESVTEQDSKDSTYSLSSTLTLSKADYEKHKVYACEVTHQGLSSPVTKSFNRGECEPKSSDKTHTSPPSPEVQLVESGGGLVQPGGSLRLSCAASGYTVSSYCMGWFRQAPGKGREGVSAIDSDGSVSYADSVKGRFTISKDNSKNTLYLQMNSLRAEDTAVYFCAADLCWVDQDQGEYNTWGQGTLVTVSS
B2: bispecific antibody LAG3-G9-LN (bispecific antibody)
heavy: not shown
light: EVQLVESGGGLVQPGGSLRLSCAASGYTVSSYCMGWFRQAPGKGREGVSAIDSDGSVSYADSVKGRFTISKDNSKNTLYLQMNSLRAEDTAVYFCAADLCWVDQDQGEYNTWGQGTLVTVSSGGGGSGGGSEIVLTQSPATLSLSPGERATLSCRASENVGTYISWYQQKPGQAPRLLIYGASNRYTGIPARFSGSGSGTDFTLTISSLEPEDFAVYYCGESYGHLYTFGGGTKVEIKRTVAAPSVFIFPPSDEQLKSGTASVVCLLNNFYPREAKVQWKVDNALQSGNSQESVTEQDSKDSTYSLSSTLTLSKADYEKHKVYACEVTHQGLSSPVTKSFNRGEC
B3: bispecific antibody LAG3-G15-LN (bispecific antibody)
heavy: not shown
light: EVQLVESGGGLVQPGGSLRLSCAASGYTVSSYCMGWFRQAPGKGREGVSAIDSDGSVSYADSVKGRFTISKDNSKNTLYLQMNSLRAEDTAVYFCAADLCWVDQDQGEYNTWGQGTLVTVSSGGGGSGGGGSGGGGSEIVLTQSPATLSLSPGERATLSCRASENVGTYISWYQQKPGQAPRLLIYGASNRYTGIPARFSGSGSGTDFTLTISSLEPEDFAVYYCGESYGHLYTFGGGTKVEIKRTVAAPSVFIFPPSDEQLKSGTASVVCLLNNFYPREAKVQWKVDNALQSGNSQESVTEQDSKDSTYSLSSTLTLSKADYEKHKVYACEVTHQGLSSPVTKSFNRGEC
B4: bispecific antibody LAG3-E-LN (bispecific antibody)
heavy: not shown
light: EVQLVESGGGLVQPGGSLRLSCAASGYTVSSYCMGWFRQAPGKGREGVSAIDSDGSVSYADSVKGRFTISKDNSKNTLYLQMNSLRAEDTAVYFCAADLCWVDQDQGEYNTWGQGTLVTVSSEPKSSDKTHTSPPSPEIVLTQSPATLSLSPGERATLSCRASENVGTYISWYQQKPGQAPRLLIYGASNRYTGIPARFSGSGSGTDFTLTISSLEPEDFAVYYCGESYGHLYTFGGGTKVEIKRTVAAPSVFIFPPSDEQLKSGTASVVCLLNNFYPREAKVQWKVDNALQSGNSQESVTEQDSKDSTYSLSSTLTLSKADYEKHKVYACEVTHQGLSSPVTKSFNRGEC

The binders below were run against human CD47 (human, UniProt Q08722 19-323) (assay: flow).

Row | EC50 [nM] | Binder
1 | 1.2 | B1
2 | 2.51 | B2
3 | 3.38 | B3
4 | ~4.07 | B4
